The assay deals with U937 cells. Description: Human U937 cellular necroptosis assay. The format is cell-based. The conditions noted are these: U-937; U937 cells stimulated with 25 ng/mL human TNFalpha and 25 μM z-VAD-FMK; 22 hr; Cell Titer-Glo viability. How it is done:
Human U937 Cellular Necroptosis Assay
The human monocytic cell line U937 (CRL-1593.2) may be purchased from ATCC. The cells are routinely maintained in RPMI-1640 Medium (Gibco, Catalog #11875-093) supplemented with 10% heat inactivated fetal bovine serum (Gibco, Catalog #16140-071), 100 units/mL penicillin and 100 μg/mL streptomycin (Gibco, Catalog #15140-122), in a humidified incubator (37° C., 5% CO2). For the assay, cells are resuspended in RPMI-1640 phenol red free Media (Gibco, Catalog #11835-030) supplemented with 10% fetal bovine serum (Sigma, Catalog #F2442), 100 units/mL penicillin and 100 ug/mL streptomycin. Cells are stimulated with 25 ng/mL human TNFalpha (Cell Sciences, Catalog #CSI15659B) and 25 μM z-VAD-FMK (R&D Systems, Catalog #FMK001) followed by seeding 5000 cells per well in a volume of 40 μL to a white, CulturPlate-384 (Perkin Elmer, Catalog #6007680). Stock solutions of the test compounds are prepared in 100% DMSO (Sigma, Catalog #D2650) and serially diluted 1:3 using 100% DMSO. Compounds are additionally diluted 1:40 in assay medium, and 10 μL/well was transferred to the plate. […] After 22 hr, viability is assessed with the addition of 20 μL of Cell Titer-Glo 2.0 (Promega, Catalog #G9243). […] Luminescence is measured using a PerkinElmer Envision™ plate reader. IC50 values are calculated using a four-parameter logistic curve fit using Genedata Screener software. […]

For `C[C@H](c1cccc(C#N)c1)n1cnc(C(=O)Nc2cccc(Cl)c2F)n1` (single isomer, unassigned) [Example 56a], it took 1380 nM to reach half-maximal inhibition (IC50).

As usually defined, the IC50 is the concentration at which inhibition is half-maximal.

The values are drawn from patent publication US11718612B2, “Inhibitors of receptor interacting protein kinase I for the treatment of disease” (Board of Regents, The University of Texas System, priority 2019, dated 2023).
